Laboratory results from PubChem BioAssay AID1963822 (ICCB-Longwood Screening Facility, Harvard Medical School, 2024).
Only a part is listed here, and it is no random draw. The source made the active and inactive calls. No rule for the calls is given here.

Assay: anaerobic choline-dependent bacterial growth inhibition – minimal medium, absorbance (AID 1963822)
Conditions: Gram-negative bacterium anaerobic choline minimal medium, active compounds read low

| SMILES | z-score |
| --- | --- |
| CN(CCCl)CCCl | inactive: 0.35 |
